Results published in ChEMBL document CHEMBL1124013, “Anticonvulsant activities of phenyl-substituted bicyclic 2,4-oxazolidinediones and monocyclic models. Comparison with binding to the neuronal voltage-dependent sodium channel” (J Med Chem, 1988).

Assay: Rotarod toxicity test for the compound in Phase-II screening was determined
Type: organism-based
Conditions: mouse, in vivo
Summary of the method: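 Phase II quantitative evaluation in mice by the NINCDS program. Dosing was ip as suspensions in 0.5% methylcellulose or 30% polyethylene glycol 400. ED50 (MES or subcutaneous Metrazol) or TD50 (rotorod) in mg/kg was derived with 95% confidence intervals, measured at the stated time after administration.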

## NC(=O)N1c2ccccc2C=Cc2ccccc21 [CARBAMAZEPINE]
  TD50: 72 mg/kg
